Data from publication PMC10534581, “Therapeutic Drug Monitoring in Children and Adolescents: Findings on Fluoxetine from the TDM-VIGIL Trial” (Pharmaceutics, 2023).

What was measured:
[1] = test system: children and adolescents; test: Treatment response on Clinical Global Impression-Improvement (CGI-I); format: in vivo, human; conditions: ordinal regressions
Protocol: On the day of blood collection, treatment responses were measured using the Clinical Global Impression (CGI) Scale (Improvement, CGI-I), which clinicians were instructed to rate solely based on the effects of the drug. […] This instrument was specifically designed to quantify the severity of 56 signs of adverse events occurring in pediatric patients under treatment with a psychotropic drug. The 56 items were rated on a Likert scale with 'none', 'slight', 'moderate', 'severe', and 'extremely severe' responses. The maximal severity on any of the items was considered in this study. […] Additionally, indications for the TDM measurement, detailed information on concomitant medications, nicotine use, weight, and height were also recorded. […] The variance inflation factor (VIF) was evaluated as a measure of multicollinearity. […] Second, proportional odds models using the clm (cumulative link models) function in the 'ordinal' R package were fitted to examine the serum concentrations as predictors of clinical effects (measured by CGI-I) and adverse effects (measured by PAERS-maximal severity). […] To determine a possible concentration threshold of efficacy, receiver operating curve (ROC) analyses were performed based on a binary logistic regression, and the optimal cutoff was calculated by finding an optimal trade-off between sensitivity and specificity. […]

[2] = test system: α- and β-adrenoceptors, histamine, and muscarinic receptors; conditions: cited from earlier work

CNCCC(Oc1ccc(C(F)(F)F)cc1)c1ccccc1 (centres unmarked) [FLX, Fluoxetine]
relationship between serum level and therapeutic effect (CGI-I) [1]: no significant relationship | affinity to α- and β-adrenoceptors, histamine, and muscarinic receptors [2]: no or very low affinity
